The conditions of series [1]: mouse, IV, 3.0 mg/kg, published PK values; cited from earlier work.
Series [2] is described as follows: Plasma plus brain concentrations at 1 h after IV dose. Conditions: CD1 mice, IV 10 mg/kg. Format: in vivo. The procedure: Compounds with acceptable PK were dosed IV at 10 mg/kg and plasma plus brain
concentrations measured at 1h in CD1 mice (3 mice per cohort, Table 2). […]

Chains of the proteins cited; added tags and fusions are not shown.
UniProt P35367, whole entry: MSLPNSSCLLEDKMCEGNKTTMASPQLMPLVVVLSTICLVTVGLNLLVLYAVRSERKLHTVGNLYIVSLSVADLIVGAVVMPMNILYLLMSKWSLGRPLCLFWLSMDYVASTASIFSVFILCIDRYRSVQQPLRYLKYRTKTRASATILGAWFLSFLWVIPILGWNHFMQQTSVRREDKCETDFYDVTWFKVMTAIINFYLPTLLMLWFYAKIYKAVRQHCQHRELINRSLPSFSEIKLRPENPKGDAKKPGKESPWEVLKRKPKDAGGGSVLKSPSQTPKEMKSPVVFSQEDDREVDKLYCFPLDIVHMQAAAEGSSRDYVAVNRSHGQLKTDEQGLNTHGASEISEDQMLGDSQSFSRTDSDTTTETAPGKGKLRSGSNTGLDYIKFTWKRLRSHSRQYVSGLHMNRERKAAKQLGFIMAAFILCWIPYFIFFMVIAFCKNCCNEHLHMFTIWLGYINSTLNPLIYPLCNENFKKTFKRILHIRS

Series [3] addresses T1, H1 receptor (Homo sapiens, UniProt P35367).
T1 construct: expressed in transfected cells
Kind of series: PDSP secondary binding, H1. Also noted: species or system human or rodent. The settings on record: secondary assay. The procedure:
GPCR panel: Screening against the receptors within the PDSP panel offers an assessment of off-target pharmacological activity at cloned human or rodent CNS receptors, channels, and transporters that could confound CNS-related phenotypes. A total of 46–47 primary binding assays were run in quadruplicate on these compounds at 10 μM, with follow-up secondary binding assays in 11-point dose-response in triplicate for select compounds versus select receptors. Secondary binding assays were executed for all receptors where test compound displaced an average of >50% of radio-labeled standard ligand. As an exception, no secondary assays were carried out for H3, PBR, or GABAA. […]

One may read the Vss as the apparent volume that relates the amount in the body to the concentration in plasma or blood. As usually defined, the Ki is the equilibrium dissociation constant of an inhibitor or competing ligand from its target. The low end stands for tighter binding, the high end for weaker binding. In the case of MDL 28170 [UNC10302675A], in series [1], the CL is listed as 41.8 mL/min/kg, the T1/2 is 44.4 min and the Vss was 1.23 L/kg. For the same substance, the “Brain: plasma at 1 hour (10 mg/kg)” value in series [2] is listed as 0.10. The same substance yielded a Ki in series [3] (run 1) above 10000 nM. Further, the “LogKi 1” value in series [3] (run 1, log Ki given with negative sign) was above -5.

Source of the values: paper PMC9005681, “Use of AD Informer Set compounds to explore validity of novel targets in Alzheimer's disease pathology” (Alzheimer's & Dementia : Translational Research & Clinical …, 2022).
